Data on 1 compound can be found in patent US7465751B2 (priority 2002, dated 2008).

The test system of this assay is isolated rat bladder. Nature of the assay: tissue or blood. The conditions noted are these: read-out: Functional Assay pKB (converted).

As to `Cc1ccc(O)c([C@H](CCN(C(C)C)C(C)C)c2ccccc2)c1` [Tolterodine], the Kb was 1.29 nM.
